1 molecule from article PMC3022805 (Journal of Biomedical Science, 2011) can be followed below.

The target of the assay is T1, low-density lipoprotein receptor (LDLR) (human (endogenous in HepG2), UniProt P01130 22-860).
T1 construct: low-density lipoprotein receptor on human hepatoblastoma cells (HepG2), used as the LDLR carriers; also called LDL receptor; source: endogenous, on HepG2 cells
The assay is described as follows: radioligand binding; HepG2 cells as LDLR carriers incubated in DMEM with 3H-LDL and apoE proteins in complex with DMPC as competitors, 4°C, 2 h; cell radioactivity counted. The settings on record: one partner purified.

B1: apoE3-(72-166) (domain or fragment, human, UniProt P02649 90-184, looked up)
chain: KAYKSELEEQLTPVAEETRARLSKELQAAQARLGADMEDVCGRLVQYRGEVQAMLGQSTEELRVRLASHLRKLRKRLLRDADDLQKRLAVYQAGA
notes: 12 kDa; numbers count on: the mature protein of 299 amino acids; source: E. coli, purified
Regarding B1, the “percent decrease of 3H-LDL binding” value turned out to be 26%.
